Reference: patent publication US7612081B2 (priority 2003, dated 2009)

System: MKN-28 human gastric carcinoma
Conditions: iv, 1 mg/kg, q4dx4
Method: Tumor fragments were inoculated on both flanks at day 0. Treatment started when tumors were just palpable. The molecule was given by oral route and intravenously according to the schedule q4d×4. During the treatment, animals were inspected every day for mortality. Physical appearance, behavior and general and local clinical signs of the mice will be observed daily. Any deviation from normality was recorded. All animals were weighed during the whole treatment period, in order to calculate the percent body weight loss due to the treatment.
Tumor volume inhibition % in treated over control tumors was evaluated 20 days after last treatment. To determine the antitumor activity of the drug, tumor diameters was measured biweekly with a Vernier caliper. The formula TV (mm^3)=[length (mm)×width (mm)^2]/2 was used, where the width and the length are the shortest and the longest diameters of each tumor, respectively.
When tumors reached a weight of about 2 g, the mice were sacrificed by cervical dislocation. LCK (log cell kill) as index of efficacy was calculated to evaluate the persistence of the effect of the molecule at the end of the treatment.

## 7-[(N′,N″,N′″-tert-butoxycarbonyl)-spermine-imino-methyl]-20S-camptothecin [ST2544]
  BWL % (body weight loss): 1%
